A short description of the series: Part IV 3×3 crossover study, plasma pharmacokinetics. Format: in vivo, human. Particulars: metabolite in plasma after pyragrel 240 mg, n=12. As to the method:
Pyragrel administration regimens are as follows: In the single-escalating-dose study (Part I), a total of 52 subjects are enrolled to receive one of three treatments (pyragrel, ozagrel, or placebo, diluted in 500 Ml normal saline) as a 3-h i.v. infusion. Six dose levels of pyragrel (30, 60,120, 180, 240, 300 mg) were intravenously infused to healthy subjects. Of the 12 subjects each at the first three dose groups (30, 60, and 120 mg), 8 received pyragrel, 2 received ozagrel (80 mg), and 2 received placebo. Eight subjects were assigned as 4/2/2 for pyragrel, ozagrel, and placebo at the 180 mg level. Only four subjects were enrolled at the 240- and 300-mg group each; all received pyragrel. […] In the saline-volume-changed study (Part II), the safety and pharmacokinetics of pyragrel were assessed by decreasing the volume of dilution saline. […] The ranges of quantification were 0.5–1,000 ng/ml for pyragrel and BBS, and 0.25–500 ng/ml for BJS in serum.
Pharmacokinetic parameters were calculated using the noncompartmental model (NCA module), WinNonlin 6.1 (Pharsight Corporation, Mountain View, CA, USA). […]

For `COc1cc(CCC(=O)O)ccc1OCc1nc(C)c(C)nc1C` [BBS], the t1/2 is 4.85 ± 1.28 h.

The values are drawn from PMC6821791, “Phase I Trial of Pyragrel, a Novel Thromboxane Synthetase Inhibitor, to Evaluate the Safety, Tolerability, and Pharmacokinetics in Healthy Volunteers” (Frontiers in Pharmacology, 2019).
